{
  "source": "patent US10716753B2",
  "about": "“Compositions for pulmonary delivery of long-acting muscarinic antagonists or long-acting B2 adrenergic receptor agonists and associated methods and systems” (priority 2009, dated 2020)",
  "test": "Aerosol performance by Next Generation Impactor, USP <601> (fine particle fraction, MMAD)",
  "type": "physicochemical",
  "conditions": "24 μg per actuation",
  "data": [
    {"smiles": "C[N+]1(C)CCC(OC(=O)C(O)(c2ccccc2)C2CCCC2)C1.[Br-]", "note": "(stereo not drawn) [glycopyrrolate, Pyrrolidinium, 3-((cyclopentylhydroxyphenylacetyl)oxy)-1,1-dimethyl-, bromide]", "values": [
      {"measurement": "MMAD", "setting": "6 weeks at 50° C.", "value": 3.94, "unit": "μm"},
      {"measurement": "FPF", "setting": "6 weeks at 50° C. ambient humidity", "value": 58.4, "unit": "%"},
      {"measurement": "FPF", "setting": "8 weeks at 40° C. and 75% relative humidity", "value": 56.8, "unit": "%"},
      {"measurement": "MMAD", "setting": "12 weeks at 40° C.", "value": 3.84, "unit": "μm"},
      {"measurement": "FPF", "setting": "12 weeks at 40° C. and 75% relative humidity", "value": 57.6, "unit": "%"},
      {"measurement": "MMAD", "setting": "initial", "value": 3.54, "unit": "μm"}
    ]}
  ]
}
